Chains of the proteins cited; added tags and fusions are not shown.
UniProt Q96LB1, whole entry: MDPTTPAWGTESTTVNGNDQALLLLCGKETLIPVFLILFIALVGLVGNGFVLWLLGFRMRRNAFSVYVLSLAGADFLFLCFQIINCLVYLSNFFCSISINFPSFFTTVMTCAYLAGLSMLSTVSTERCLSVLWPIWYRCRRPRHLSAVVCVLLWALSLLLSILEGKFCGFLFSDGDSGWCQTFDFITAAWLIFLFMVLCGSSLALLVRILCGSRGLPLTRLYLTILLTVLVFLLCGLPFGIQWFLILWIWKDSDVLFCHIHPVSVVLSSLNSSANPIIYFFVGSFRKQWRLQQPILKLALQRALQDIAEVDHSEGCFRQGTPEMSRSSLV

In patent US20250313569A1, “Pharmaceutical Compounds And Compositions As Modulators Of MAS-Related G-Protein Receptor X2” (Enanta Pharmaceuticals, Inc., priority 2024, published 2025):

What was measured:
MRGPRX2 LAD2 = MRGPRX2 LAD2 (Homo sapiens, UniProt Q96LB1); test: LAD2 β-hexosaminidase release assay (degranulation), Cortistatin-14 at EC75; conditions: read-out: MRGPRX2 LAD2 EC50; LAD2 cells; 1 hour compound incubation, Cortistatin-14 at EC75 for 30 minutes; percent degranulation (β-hexosaminidase)
Protocol: LAD2 cells obtained from the NIH were cultured in StemPro34 (Gibco) serum-free media supplemented with GlutaMax, penicillin and streptomycin, and 100 ng/mL SCF (Invitrogen). Cells were maintained in a 37° C., 5% CO2 humidified incubator at a concentration of 2-5E5 cells/mL, with hemidepletion once a week.
One day prior to the assay, cells were starved of SCF at a concentration of 2.3E5 cells/mL. On the day of the assay cells were washed twice in Tyrode's Buffer containing 0.04% BSA (assay buffer) and plated in a 96 well-v-bottom assay plate at 20,000 cells per well in 80 μL of assay buffer. Compounds were solubilized at 10 mM DMSO and added as a 10-fold overconcentrated 8-point curve in assay buffer in a volume of 10 μL using the JANUS liquid handler. Assay plates were incubated for 1 hour at 37° C. Cortistatin-14 was diluted in assay buffer to […] its predetermined EC75 and added to the assay plates in a volume of 10 μL. Assay plates were incubated at 37° C. for 30 minutes. […] The plates were read on a Perkin Elmer Envision plate reader at an Abs of 405 nanometers. Percent degranulation was calculated and Xlfit was used to calculate an EC50 value for each compound using a 4-parameter logistic curve fitting model. […]

human MRGPRX2 = human MRGPRX2 (Homo sapiens, UniProt Q96LB1); test: MRGPRX2 IP-1 Gq HTRF assay in HEK293 cells stably expressing human MRGPRX2, Cortistatin-14 at EC75; conditions: read-out: MRGPRX2 IP-1 Gq HTRF EC50, 2 hours at 37° C., cellular IP-1
Protocol: HEK293 cells stably expressing human MRGPRX2 were grown in Dulbecco's Modified Eagle Medium (DMEM) supplemented with 10% fetal bovine serum (FBS), 1% Glutamax, and 1 μg/mL of puromycin. Cells were maintained in a 37° C., 5% CO2 humidified incubator.
Cells were plated in a 384-well assay plate at a density of 20,000 cells per well overnight. Compounds were solubilized at 10 mM in DMSO and added as a 10-point curve using an ECHO acoustic liquid handler. On the day of the assay, Cortistatin-14 was diluted in assay buffer (provided by IP-One-Gq-HTRF kit purchased from Cisbio, 62IPAPEJ) and added to the assay plate at a final concentration corresponding to the predetermined EC75. Plates were incubated at 37° C. for 2 hours prior to addition of HTRF detection reagents per the manufacturer's instructions. The plates were read on a Perkin Elmer Envision plate reader. The HTRF ratio and cellular IP-1 levels were calculated. XLfit was used to calculate an EC50 value for each compound using a 4-parameter logistic curve fitting model. EC50 ranges are reported as follows: A<100 nM; B 0.1-1 μM; C>1 μM.

SMILES	EC50 (MRGPRX2 LAD2)	EC50 (human MRGPRX2)
O=C(N[C@H]1C[C@@H](Nc2cc(C(F)(F)F)nc3ccc(Cl)cc23)CN(C(=O)C(F)F)C1)c1cn(C[C@H](O)C(F)(F)F)nc1Cl	< 100 nM	–
CS(=O)(=O)Nc1cccc(C(=O)N[C@H]2C[C@@H](Nc3cc(C(F)(F)F)nc4ccc(Cl)cc34)CN(CC(F)(F)F)C2)c1	–	< 100 nM
